# Values quoted from earlier work in patent US20150080844A1, “THERAPY FOR KIDNEY DISEASE AND/OR HEART FAILURE BY INTRADERMAL INFUSION” (Medtronic, Inc., priority 2012, published 2015).
# Settings: cited from earlier work
substance,measurement,setting,value
insulin,absorption rate by intradermal delivery (in words),Pettis et al.,increased absorption rate
same,bioavailability (in words),"intradermal delivery, literature",inability to enhance bioavailability
